Values quoted from earlier work as cited in patent US12584131B2, “Methods of gene therapy” (OREGON HEALTH & SCIENCE UNIVERSITY, priority 2018, dated 2026).

Tested on: CYP enzymes

Retrorsine
Metabolizing CYP: CYP3A4
